Key:
[1] = target: T1, α-glucosidase (yeast origin) (Saccharomyces cerevisiae, UniProt P53341); experiment: α-glucosidase (yeast) inhibition assay, PNPG substrate, 96-well; type: biochemical; settings: read-out: IC50s α-glucosidase (yeast), two independent assays, performed in duplicate, 37 °C, 10 min
[2] = target: α-mannosidase (jack bean origin) (Canavalia ensiformis, UniProt C0HJB3); experiment: α-mannosidase inhibition assay, 96-well; type: biochemical; settings: read-out: IC50s α-mannosidase (jack bean); two independent assays, performed in duplicate
Description: (§1) To assess the inhibitory effect and also the extent of selectivity our library was against α-glucosidase (yeast origin), α-fucosidase (bovine kidney origin) and α-mannosidase (jack bean origin) (in 96-well plates employing 4-nitrophenyl-α-D-glucopyranoside (PNPG) as substrate) (Table 1). The test compounds were dissolved and diluted in dimethyl sulfoxide (DMSO). They were placed in the plate along with the substrate and 10 mM of potassium […] buffer. They were then reacted with appropriate enzymes. After incubating the plates for ten minutes, the absorbance of the wells were measured at […]. The increase in […] (ΔA) was compared against the control i.e. buffer. The inhibitory concentrations (IC50s) were computed using the standard formula (Inhibition% = ΔAcontrol − [ΔAsample/ΔAcontrol] × 100).Acarbose, is used as a standard drug for this assay (Table 1).
(§2) The inhibitory effect of the synthesized compounds on α-glucosidase (yeast origin), α-fucosidase (bovine kidney origin) and α-mannosidase (jack bean origin) inhibitory activity was determined in 96-well plates employing the substrate PNPG and 4-nitrophenyl α-D-glucopyranoside according to the procedure previously reported by Ferreres et al.[42]. Prior to use, all test compounds were solubilised in solvent, dimethylsulfoxide (DMSO), and then further diluted in DMSO to acquire the desired final maximum test concentration. Briefly, each well in 96-well plates contained 100 µL of 2 mM 4-nitrophenyl α-D-glucopyranoside (PNP-G) in 10 mM potassium phosphate buffer (pH 7.2) and different test concentrations (2–10 µM). The reaction was initiated by the addition of 5 µL of the enzyme solution (0.1 IU per well). α-glucosidase (yeast), α-fucosidase (bovine kidney) and α-mannosidase (jack bean) were purchased from Sigma Aldrich, Bangaluru). The plates were incubated at 37 °C for 10 min. The absorbance was measured spectrophotometrically at 430 nm (Spectra Max M5e micro plate reader). The increase in absorbance (ΔA) was compared with that of the control (buffer instead of test compound) to compute the inhibitory concentrations (IC50) which was determined from two independent assays, performed in duplicate. […]

Protein sequences, listed by entry. Tags and fused reporters are not part of them. Residues count along the entry.
UniProt P53341, whole entry: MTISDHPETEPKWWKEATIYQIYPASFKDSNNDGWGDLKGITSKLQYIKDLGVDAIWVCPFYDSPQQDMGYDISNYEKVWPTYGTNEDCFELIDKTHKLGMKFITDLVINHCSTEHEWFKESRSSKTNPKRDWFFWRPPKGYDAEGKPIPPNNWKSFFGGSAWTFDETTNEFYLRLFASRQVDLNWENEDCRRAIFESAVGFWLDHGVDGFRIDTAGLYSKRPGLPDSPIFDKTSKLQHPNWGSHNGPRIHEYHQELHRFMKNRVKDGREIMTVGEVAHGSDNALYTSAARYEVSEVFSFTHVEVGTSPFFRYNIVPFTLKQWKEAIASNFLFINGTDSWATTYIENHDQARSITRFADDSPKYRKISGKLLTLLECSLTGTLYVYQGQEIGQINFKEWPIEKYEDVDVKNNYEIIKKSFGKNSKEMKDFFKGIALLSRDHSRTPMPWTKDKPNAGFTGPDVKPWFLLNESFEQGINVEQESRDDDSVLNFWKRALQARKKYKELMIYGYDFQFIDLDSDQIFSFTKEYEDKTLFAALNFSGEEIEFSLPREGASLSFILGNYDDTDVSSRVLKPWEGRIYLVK
UniProt C0HJB3, whole entry: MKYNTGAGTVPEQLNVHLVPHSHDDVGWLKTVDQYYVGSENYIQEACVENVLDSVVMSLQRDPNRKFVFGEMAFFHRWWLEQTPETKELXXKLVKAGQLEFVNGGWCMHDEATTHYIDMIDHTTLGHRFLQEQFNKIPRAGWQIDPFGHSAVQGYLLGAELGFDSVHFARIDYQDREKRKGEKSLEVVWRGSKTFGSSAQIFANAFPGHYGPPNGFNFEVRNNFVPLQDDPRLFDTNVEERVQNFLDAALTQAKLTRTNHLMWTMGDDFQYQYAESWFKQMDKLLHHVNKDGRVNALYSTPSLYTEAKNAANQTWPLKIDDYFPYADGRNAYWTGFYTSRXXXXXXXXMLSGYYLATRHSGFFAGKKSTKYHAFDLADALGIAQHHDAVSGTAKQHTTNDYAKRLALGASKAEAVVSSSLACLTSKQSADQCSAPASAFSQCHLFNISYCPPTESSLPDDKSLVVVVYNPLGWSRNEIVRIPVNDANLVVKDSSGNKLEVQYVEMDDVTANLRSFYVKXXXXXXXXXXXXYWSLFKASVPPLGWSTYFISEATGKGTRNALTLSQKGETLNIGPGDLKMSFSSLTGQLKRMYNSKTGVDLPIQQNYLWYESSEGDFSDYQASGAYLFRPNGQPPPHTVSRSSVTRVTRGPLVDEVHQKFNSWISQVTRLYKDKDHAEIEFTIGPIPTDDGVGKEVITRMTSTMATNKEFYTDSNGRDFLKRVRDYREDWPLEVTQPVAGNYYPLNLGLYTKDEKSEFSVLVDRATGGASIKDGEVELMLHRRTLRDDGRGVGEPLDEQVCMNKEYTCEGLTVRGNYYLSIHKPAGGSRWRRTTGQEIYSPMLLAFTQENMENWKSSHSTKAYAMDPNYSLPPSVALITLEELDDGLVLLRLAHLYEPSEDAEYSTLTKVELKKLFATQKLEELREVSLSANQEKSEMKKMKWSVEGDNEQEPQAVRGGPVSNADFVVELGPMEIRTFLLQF
UniProt Q2KIM0, 23-468 limits assumed: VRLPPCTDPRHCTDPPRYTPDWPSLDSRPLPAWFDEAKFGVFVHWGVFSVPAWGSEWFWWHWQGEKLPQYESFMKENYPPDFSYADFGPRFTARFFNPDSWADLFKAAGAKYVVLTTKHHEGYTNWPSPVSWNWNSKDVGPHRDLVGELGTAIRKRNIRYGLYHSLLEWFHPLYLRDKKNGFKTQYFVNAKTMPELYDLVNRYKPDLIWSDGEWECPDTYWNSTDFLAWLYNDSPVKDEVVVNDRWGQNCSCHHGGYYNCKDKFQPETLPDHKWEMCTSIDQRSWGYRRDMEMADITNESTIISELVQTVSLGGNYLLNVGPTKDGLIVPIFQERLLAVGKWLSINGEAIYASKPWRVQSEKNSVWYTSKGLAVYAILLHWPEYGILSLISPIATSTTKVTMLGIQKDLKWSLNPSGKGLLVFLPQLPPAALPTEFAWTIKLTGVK

[3] = target: α-fucosidase (bovine kidney origin) (Bos taurus, UniProt Q2KIM0); experiment: α-fucosidase inhibition assay, 96-well; type: biochemical; settings: read-out: IC50s α-fucosidase (bovine kidney); two independent assays, performed in duplicate
Description: as §1, §2

[4] = target: T1, α-glucosidase (yeast origin); experiment: Inhibition kinetics (Lineweaver-Burk and secondary plots); settings: from Y-intercept of the LB plot against concentrations of 3c
[5] = system: Streptozotocin induced male albino Wistar rats; experiment: In vivo study in Streptozotocin induced diabetic male albino Wistar rats
Description: Male albino Wistar rats weighing between 200–240 gm each were used for the present investigation. The animals were categorized into five groups (I-V) containing three animals each (n = 3). […].
Male albino Wistar rats weighing between 200–240 g each were used for the present investigation. The animals were categorized into five groups (I-V) of three each (n = 3), while each one was housed in a separate cage at a temperature of 24 ± 3 °C, with relative humidity of 65 ± 5% and a 12 h dark-light cycle. They were housed and handled in Biosafety Level 2 (BSL2) animal facilities at University College of Pharmaceutical Sciences, Kakatiya University, Warangal, Andhra Pradesh, India and were provided with a standard pellet diet of laboratory and water with continuous monitoring. Actual drug administration was begun after 72 h of diabetic induction by streptozotocin (STZ). The test drug acarbose, a known α-glucosidase inhibitor were administered orally every day for about 28 days soon after the food was completed by the animal. All protocols were reviewed prior to the start of the experiment by an independent ethical review board at University College of Pharmaceutical Sciences, Kakatiya University and approved to be in accordance with the license for animal experiments issued by The Animal Experiments Inspectorate (License no. 1820/GO/Re/S/CPCSEA).
Diabetes was induced postprandial in the rats (Group II-V)bya single intraperitoneal (I.P) injection of freshly prepared Streptozotocin(60 mgkg^−1 body wt.) in 0.1 M sodium citrate buffer of pH 4.5. Non-diabetic control rats (group-I) were received an I.P injection of buffer alone. Diabetes was confirmed after 72 h of STZ induction by assaying the blood glucose levels. The rats having blood glucose higher than 11 mmol.L^−1 were considered to be diabetic and selected for further study.
For the determination of biochemical parameters, the animals were kept under fasting overnight and peripheral blood was drawn for the assays. The tests were carried out using commercial kits and following the manufacturer’s instructions.At the end of test period of 28 days, the animals under fasting conditions were anesthetized and sacrificed. Blood and tissues were stored for further biochemical and histological studies. Each animal in every group was tested for body weight, blood glucose, insulin, creatinine, Hb1Ac, lipid profiles.
The results were expressed as mean ± standard deviation (M ± SD) for three rats in each group. The differences between treated and control groups were assessed by one way analysis of variance (ANOVA) using MINITAB (Version. 14). The values of p < 0.05 were considered to show the statistical significance.

Row | Compound | IC50 [1] [µM] | IC50 [2] [µM] | IC50 [3] [µM] | other results
1 | CCN(CC)C(=O)c1ccccc1C(=O)Cc1ccccc1-c1ccc(F)cc1 | 5.89 | 44.8 | > 50 | –
2 | O=C(Cc1ccccc1Br)c1ccccc1C(=O)N1CCOCC1 | 10.2 | > 50 | > 50 | –
3 | CCN(CC)C(=O)c1ccccc1C(=O)Cc1ccccc1-c1ccccc1 | 5.93 | 23.8 | > 50 | –
4 | Cc1ccc(-c2ccccc2CC(=O)c2ccccc2C(=O)N2CCCC2)cc1 | 5.68 | > 50 | > 50 | –
5 | O=C(Cc1ccccc1Br)c1ccccc1C(=O)N1CCCC1 | 5.2 | > 50 | > 50 | –
6 | Cc1ccc(-c2ccccc2CC(=O)c2ccccc2C(=O)N2CCCCC2)cc1 | 4.5 | > 50 | > 50 | Ki΄ (inhibition constant, binding to enzyme-substrate complex) [4]: 4.6; FBG after treatment ([5]; 3.6 mg/kg of 3c, from 300 mg/dl): 120 mg/dL; control over FBG, lower dose in contrast to high-dose ([5]; 3.6 mg/kg vs 7.2 mg/kg body weight): better control over FBG; level of serum insulin after the treatment period ([5]; STZ diabetic rats, 28 days): moderate improvement; toxicity in vivo ([5]; male albino Wistar rats): minimal toxicity; change in fasting blood glucose (FBG) compared to the untreated diabetic rats ([5]; oral administration for about 4 weeks, STZ diabetic rats): highly significant (P < 0.001) decrease; liver histology (periportal inflammation) ([5]; treated diabetic rats, diabetic control showed moderate periportal inflammation): mild inflammation; pancreas histology (β-cell population) ([5]; versus shrinkage of β-cells in diabetic control): improved β -cell population
7 | O=C(Cc1ccccc1-c1ccc(F)cc1)c1ccccc1C(=O)N1CCCC1 | 4.93 | > 50 | 34.4 | –
8 | CCN(CC)C(=O)c1ccccc1C(=O)Cc1ccccc1Br | 10.1 | > 50 | > 50 | –
9 | O=C(Cc1ccccc1-c1ccccc1)c1ccccc1C(=O)N1CCCCC1 | 5.93 | > 50 | > 50 | –
10 | O=C(Cc1ccccc1-c1ccc(F)cc1)c1ccccc1C(=O)N1CCCCC1 | 5.88 | > 50 | > 50 | –
11 | O=C(Cc1ccccc1-c1ccccc1)c1ccccc1C(=O)N1CCCC1 | 5.95 | > 50 | 48.1 | –
12 | O=C(Cc1ccccc1-c1ccc(F)cc1)c1ccccc1C(=O)N1CCOCC1 | 5.17 | > 50 | > 50 | –
13 | O=C(Cc1ccccc1Br)c1ccccc1C(=O)N1CCCCC1 | 5.81 | 36.2 | > 50 | –
14 | O=C(Cc1ccccc1-c1ccccc1)c1ccccc1C(=O)N1CCOCC1 | 5.15 | 49.4 | > 50 | –

Source: paper PMC5643545, “A novel library of -arylketones as potential inhibitors of α-glucosidase: Their design, synthesis, in vitro and in vivo studies” (Scientific Reports, 2017)
